Data reported in patent US4305872A, “Polypeptide derivatives” (priority 1979, dated 1981).

System: guinea pig ileum (opiate receptor site)
Assay: Guinea pig ileum (GPI) assay for enkephalin activity, electrically stimulated contractions
Conditions: Naloxone added to the bath in presence of Methadone; FIG. 3

C=CCN1CC[C@]23c4c5ccc(O)c4O[C@H]2C(=O)CC[C@@]3(O)[C@H]1C5 [Naloxone]
antagonism of opiate block: return of contractions: the contractions immediately return
